The target in this assay is T1, Aminopeptidase N (Plasmodium falciparum FcB1/Columbia) (UniProt O96935).
T1 sequence (whole entry): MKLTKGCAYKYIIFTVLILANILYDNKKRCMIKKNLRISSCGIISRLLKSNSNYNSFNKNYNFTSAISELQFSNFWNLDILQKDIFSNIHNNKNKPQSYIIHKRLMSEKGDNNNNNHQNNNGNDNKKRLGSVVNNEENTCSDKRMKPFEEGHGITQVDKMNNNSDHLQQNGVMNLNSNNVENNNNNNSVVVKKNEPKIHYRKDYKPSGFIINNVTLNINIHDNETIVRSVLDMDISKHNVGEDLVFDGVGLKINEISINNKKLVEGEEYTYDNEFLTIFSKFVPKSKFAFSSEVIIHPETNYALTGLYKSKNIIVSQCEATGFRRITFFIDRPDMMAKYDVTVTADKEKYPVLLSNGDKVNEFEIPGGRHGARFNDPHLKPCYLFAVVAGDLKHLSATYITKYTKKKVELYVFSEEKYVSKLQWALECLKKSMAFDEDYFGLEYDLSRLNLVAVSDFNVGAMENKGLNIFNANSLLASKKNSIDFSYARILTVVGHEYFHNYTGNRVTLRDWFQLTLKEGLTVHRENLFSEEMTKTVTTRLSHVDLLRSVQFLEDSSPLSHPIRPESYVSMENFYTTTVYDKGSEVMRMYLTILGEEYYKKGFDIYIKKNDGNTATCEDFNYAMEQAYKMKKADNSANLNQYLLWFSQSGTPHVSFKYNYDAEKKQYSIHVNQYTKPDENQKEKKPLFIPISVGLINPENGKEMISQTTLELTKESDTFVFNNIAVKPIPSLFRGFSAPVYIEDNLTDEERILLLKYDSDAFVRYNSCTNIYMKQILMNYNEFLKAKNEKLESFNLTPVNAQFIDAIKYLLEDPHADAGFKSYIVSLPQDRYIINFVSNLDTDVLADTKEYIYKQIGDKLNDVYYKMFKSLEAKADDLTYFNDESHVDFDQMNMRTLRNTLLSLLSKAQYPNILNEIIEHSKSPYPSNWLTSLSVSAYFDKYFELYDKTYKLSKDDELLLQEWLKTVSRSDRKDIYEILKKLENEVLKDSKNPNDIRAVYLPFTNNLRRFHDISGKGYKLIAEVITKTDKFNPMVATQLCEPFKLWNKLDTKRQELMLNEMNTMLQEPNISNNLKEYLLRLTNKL
As to the kind of experiment: Ratio of Ki for bestastin to compound for Plasmodium falciparum M1-aminopeptidase.

For two molecules, Ratio Ki results are on record in ChEMBL document CHEMBL1687941 (J Med Chem, 2011).

Each structure is given as a SMILES string.

Consider `COc1ccc(C[C@@H](N)[C@H](O)C(=O)N[C@@H](CC(C)C)C(=O)O)cc1`, for which the Ratio Ki worked out at 5.

As for `CC(C)C[C@H](NC(=O)[C@@H](O)[C@H](N)Cc1ccc(OCc2ccccc2)cc1)C(=O)O`, the Ratio Ki is 5.
